Laboratory results as given in paper PMC9477835, “Structure of the active Gi-coupled human lysophosphatidic acid receptor 1 complexed with a potent agonist” (Nature Communications, 2022).

Target: T1, human lysophosphatidic acid receptor 1 (LPA1) (human, UniProt Q92633 2-364)
T1 construct: human LPA1 gene (UniProtKB Q92633) in a modified pFastBac vector; C-terminal TEV site followed by EGFP-His10; also called LPA1-GFP; the receptor; source: Sf9 insect cells (baculovirus), purified (TALON resin, SEC) in the presence of ONO-0740556; not shown: Flag, N-terminal, kept; EGFP, C-terminal, cleaved; His10, C-terminal, cleaved
T1 sequence: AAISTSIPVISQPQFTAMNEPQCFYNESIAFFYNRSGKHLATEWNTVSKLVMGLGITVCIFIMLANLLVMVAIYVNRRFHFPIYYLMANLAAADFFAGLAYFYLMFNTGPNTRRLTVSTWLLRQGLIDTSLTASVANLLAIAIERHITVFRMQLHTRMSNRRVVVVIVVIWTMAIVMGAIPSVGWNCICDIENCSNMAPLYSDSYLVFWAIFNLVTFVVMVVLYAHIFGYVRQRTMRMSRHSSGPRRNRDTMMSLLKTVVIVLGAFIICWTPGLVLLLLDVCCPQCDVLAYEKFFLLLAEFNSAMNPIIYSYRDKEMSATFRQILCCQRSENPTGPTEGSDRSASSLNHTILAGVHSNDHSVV
Assay: cryo-EM structure; LPA1, Gi heterotrimer and scFv16 purified separately and mixed (1.2 molar excess of Gi heterotrimer and scFv16) with TEV protease, apyrase and 10 µM ONO-0740556, 4 °C overnight; complex purified by M1 anti-Flag affinity and SEC in 20 mM Tris-HCl pH 8.0, 150 mM NaCl, 0.01% GDN, 1 µM ONO-0740556; stable state and four classes S1-S4
Conditions: both partners purified

B1: human Gαi1 subunit (natural protein)
chain: MGCTLSAEDKAAVERSKMIDRNLREDGEKAAREVKLLLLGAGESGKSTIVKQMKIIHEAGYSEEECKQYKAVVYSNTIQSIIAIIRAMGRLKIDFGDSARADDARQLFVLAGAAEEGFMTAELAGVIKRLWKDSGVQACFNRSREYQLNDSAAYYLNDLDRIAQPNYIPTQQDVLRTRVKTTGIVETHFTFKDLHFKMFDVGGQRSERKKWIHCFEGVTAIIFCVALSDYDLVLAEDEEMNRMHESMKLFDSICNNKWFTDTSIILFLNKKDLFEEKIKKSPLTICYPEYAGSNTYEEAAAYIQCQFEDLNKRKDTKEIYTHFTCATDTKNVQFVFDAVTDVIIKNNLKDCGLF
notes: WT human Gαi1 subunit; Stood in the assay as a subunit of the heterotrimer m2; also called Gi (α5-helix); source: Sf9 insect cells, co-expressed and purified as part of the Gi heterotrimer
B1: binds.
